How the values were obtained:
DNA = DNA interstrand cross-link formation on UV (350 nm) irradiation (Example 16)
[1] = mice; cited from earlier work

| Substance | direct strand breaks (DNA) | time to clearance from plasma after injection [1] [h] |
| --- | --- | --- |
| 5-(N,N, N-trimethylmethanaminium iodide)-1-(2-(5-(N,N, N-trimethyl methanaminium iodide)-4-nitro-1H-imidazol-1-yl)ethyl)-4-nitro-1H-imidazole | induced direct strand breaks | – |
| Mito-CP | – | ≤ 6 |

From patent publication US8962670B2, “Anti-cancer agents” (UWM Research Foundation, Inc., priority 2011, dated 2015)
